Molecular target: Dopamine receptor
Experiment: In vitro inhibition of [3H]-Spiperone binding to Dopamine receptor D2 in Macaca nemestrina striatal membranes (using L-tartrate salt of authentic raclopride)
Parameters: species or system Striatum, Membrane

SMILES: CCN1CCC[C@H]1CNC(=O)c1c(O)c(Cl)cc(Cl)c1OC [RACLOPRIDE]
- Ki: 5.1 nM
